Experimental data: patent US20180125835A1, “Dosage and Use of an A2A Antagonist” (H. Lundbeck A/S, priority 2014, published 2018)

Biological target: A2A receptor (Homo sapiens, UniProt P29274)
Experiment: PET study in humans of A2A receptor occupancy with [11C]-SCH442416
Type: in vivo
Conditions: putamen, Emax model vs CPET

Cc1ccc(C(=O)Nc2nc(-c3ccco3)c(C(=O)C3CCOCC3)s2)cn1 [Compound 504]
estimated Emax of A2A receptor occupancy: 88%
